Laboratory results published in patent US8404805B2, “Characterization of GRP94-ligand interactions and purification, screening, and therapeutic methods relating thereto” (Duke University, priority 2000, dated 2013).

Tested on: GRP94/HSP90

C[C@@H]1C[C@H]2O[C@@H]2/C=C\C=C\C(=O)Cc2c(Cl)c(O)cc(O)c2C(=O)O1 [radicicol]
effect on conversion to the active conformation: block the conversion of these proteins to the conformation necessary for function
